Chains of the proteins cited; added tags and fusions are not shown.
UniProt P14842, whole entry: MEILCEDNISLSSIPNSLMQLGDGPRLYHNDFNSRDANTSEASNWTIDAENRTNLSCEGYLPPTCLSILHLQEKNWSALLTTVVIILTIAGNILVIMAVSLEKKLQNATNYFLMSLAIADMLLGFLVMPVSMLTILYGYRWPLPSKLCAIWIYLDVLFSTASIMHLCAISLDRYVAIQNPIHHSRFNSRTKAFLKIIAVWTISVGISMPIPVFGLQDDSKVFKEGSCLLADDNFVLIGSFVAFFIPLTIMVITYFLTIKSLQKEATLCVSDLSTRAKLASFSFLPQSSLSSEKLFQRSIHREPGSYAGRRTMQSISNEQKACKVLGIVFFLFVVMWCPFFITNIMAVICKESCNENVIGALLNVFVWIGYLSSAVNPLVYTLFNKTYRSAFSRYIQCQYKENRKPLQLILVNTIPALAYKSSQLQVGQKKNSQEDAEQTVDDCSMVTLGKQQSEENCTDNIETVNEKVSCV

In ChEMBL document CHEMBL1139435, “Beta-oxygenated analogues of the 5-HT2A serotonin receptor agonist 1-(4-bromo-2,5-dimethoxyphenyl)-2-aminopropane” (J Med Chem, 2004):

Key:
[1] = target: T1, 5-hydroxytryptamine receptor 2A (Rattus norvegicus, UniProt P14842); assay: Serotonin 5-HT2A receptor-mediated intracellular calcium [Ca2+] mobilization in rat A7r5 cells; type: functional, cell-based
How it was run: (§1)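 Rat A7r5 vascular smooth muscle cells grown in DMEM/10% FBS, seeded at 20 000 cells/well, cultured 2 days. Loaded with calcium dye in HBSS/20 mM HEPES/2.5 mM probenecid pH 7.4 for 1 h at 23 °C. Response is peak minus basal fluorescence, expressed as % of maximal 5-HT response.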

[2] = target: T1, 5-hydroxytryptamine receptor 2A; assay: Binding affinity for 5-HT2A serotonin receptor
How it was run: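 Incubated 1 h at 23 °C. Nonspecific binding defined with methiothepin (10 µM final). Ended by vacuum filtration over GF/B filters presoaked in 0.3% polyethyleneimine, washed with ice-cold buffer. Bound counts read by scintillation. IC50 for displacing labelled DOI binding.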

[3] = target: 5-hydroxytryptamine receptor 2A (Rattus norvegicus) (UniProt P14842); assay: Efficacy as 5-HT2A receptor-mediated intracellular calcium [Ca2+] mobilization in rat A7r5 cells; type: functional, cell-based; how it was run: as §1

| Compound | EC50 [1] [nM] | Ki [2] [nM] | Efficacy [3] [%] |
| --- | --- | --- | --- |
| COc1cc(CC(C)N)c(OC)cc1Br (stereo not given) [BROLAMFETAMINE] | 60 | 0.1 |  |
| COc1cc(C[C@@H](C)N)c(OC)cc1Br | 20 | 0.2 | 51 |
